# “Also recorded” adds a separate entry of the source. Read-outs that look alike come from different tables or passages of the source.
# Tests used:
# oligodendrocytes [1] = test: Test 3: protective effect of riluzole on oligodendrocyte death induced by kainate; format: cell-based, Wistar rats; details: for Number of oligodendrocytes % relative to the control ± standard deviation: 48 hours
# Experimental: Protective effect of riluzole on oligocytes death induced by kainate
# The oligodendrocyte cultures were exposed to kainate at a dose of 1 mM and to riluzole at doses of from about 0.01 mM to about 10 mM.
# oligodendrocytes [2] = details: 48 hours
smiles,measurement,setting,value
"Nc1nc2ccc(OC(F)(F)F)cc2s1 [Riluzole, 2-amino-6-trifluoromethoxy-benzothiazole]",Number of oligodendrocytes % relative to the control ± standard deviation,oligodendrocytes [1]; Kainate 1 mM + riluzole 0.01 mM,48.7 ± 7 % relative to the control
same,Number of oligodendrocytes % relative to the control ± standard deviation,oligodendrocytes [1]; Kainate 1 mM + riluzole 0.1 mM,65.2 ± 9.2 % relative to the control
same,Number of oligodendrocytes % relative to the control ± standard deviation,oligodendrocytes [1]; Kainate 1 mM + riluzole 1 mM,69.4 ± 12 % relative to the control
same,Number of oligodendrocytes % relative to the control ± standard deviation,oligodendrocytes [1]; Kainate 1 mM + riluzole 10 mM,56.3 ± 6.9 % relative to the control
same,Effect on oligodendrocyte death from apoptosis induced by kainate,"oligodendrocytes [1]; kainate 1 mM, riluzole about 0.01 mM to about 10 mM",reduces oligodendrocyte death from apoptosis induced by kainite; also recorded: reduced oligodendrocyte death from apoptosis induced by kainate
same,Number of oligodendrocytes % relative to the control ± standard deviation,oligodendrocytes [2]; riluzole alone 0.01 mM,99.6 ± 15.7 % relative to the control
same,Number of oligodendrocytes % relative to the control ± standard deviation,oligodendrocytes [2]; riluzole alone 0.1 mM,94.3 ± 17.3 % relative to the control
same,Number of oligodendrocytes % relative to the control ± standard deviation,oligodendrocytes [2]; riluzole alone 1 mM,107.1 ± 9.5 % relative to the control
same,Number of oligodendrocytes % relative to the control ± standard deviation,oligodendrocytes [2]; riluzole alone 10 mM,86.9 ± 16 % relative to the control

# — US20020037902A1, “Use of riluzole or its salts for the prevention and treatment of adrenoleukodystrophy” (priority 2000, published 2002)
